Laboratory results: ChEMBL document CHEMBL1136077, “Nicotinyl aspartyl ketones as inhibitors of caspase-3” (Bioorg Med Chem Lett, 2003)

Molecular target: T1, Caspase-3 (Homo sapiens, UniProt P42574)
T1 sequence (P42574 whole entry): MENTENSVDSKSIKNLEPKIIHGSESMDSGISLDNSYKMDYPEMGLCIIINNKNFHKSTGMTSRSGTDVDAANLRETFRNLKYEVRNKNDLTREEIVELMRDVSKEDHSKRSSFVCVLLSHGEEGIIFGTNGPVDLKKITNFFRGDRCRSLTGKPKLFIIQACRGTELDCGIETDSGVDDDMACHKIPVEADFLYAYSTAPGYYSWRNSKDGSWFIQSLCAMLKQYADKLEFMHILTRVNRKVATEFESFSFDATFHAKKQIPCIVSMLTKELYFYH
Test: Inhibitory concentration required against human Caspase-3

IC50: 27 nM
Compound: CC(=O)N[C@@H](CC(=O)O)C(=O)N[C@@H](CCC(=O)O)C(=O)N[C@H](C(=O)N[C@H](C=O)CC(=O)O)C(C)C
